Usually IC50 stands for the concentration at which inhibition is half-maximal.

Protein sequences, listed by entry. Tags and fused reporters are not part of them. Residues count along the entry.
UniProt P03952, 391-638 limits assumed: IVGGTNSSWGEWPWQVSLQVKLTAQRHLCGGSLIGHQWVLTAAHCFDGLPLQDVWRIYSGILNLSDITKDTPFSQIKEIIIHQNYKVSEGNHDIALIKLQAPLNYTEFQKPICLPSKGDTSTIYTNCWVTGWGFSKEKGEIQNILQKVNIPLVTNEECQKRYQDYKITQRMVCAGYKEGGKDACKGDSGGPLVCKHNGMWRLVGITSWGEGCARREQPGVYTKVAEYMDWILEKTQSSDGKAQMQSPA
UniProt P03952, 20-390 partner limits assumed: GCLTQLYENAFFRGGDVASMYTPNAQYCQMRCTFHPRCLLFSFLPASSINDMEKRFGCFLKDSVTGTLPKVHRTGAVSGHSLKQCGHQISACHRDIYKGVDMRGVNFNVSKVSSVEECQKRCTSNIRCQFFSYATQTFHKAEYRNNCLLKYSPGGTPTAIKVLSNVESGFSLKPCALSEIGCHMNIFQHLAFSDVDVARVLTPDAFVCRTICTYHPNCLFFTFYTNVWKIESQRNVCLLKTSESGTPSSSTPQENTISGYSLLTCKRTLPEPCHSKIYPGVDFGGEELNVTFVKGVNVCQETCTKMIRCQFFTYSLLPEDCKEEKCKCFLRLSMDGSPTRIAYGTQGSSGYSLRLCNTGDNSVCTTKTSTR
UniProt P03951, 388-625 limits assumed: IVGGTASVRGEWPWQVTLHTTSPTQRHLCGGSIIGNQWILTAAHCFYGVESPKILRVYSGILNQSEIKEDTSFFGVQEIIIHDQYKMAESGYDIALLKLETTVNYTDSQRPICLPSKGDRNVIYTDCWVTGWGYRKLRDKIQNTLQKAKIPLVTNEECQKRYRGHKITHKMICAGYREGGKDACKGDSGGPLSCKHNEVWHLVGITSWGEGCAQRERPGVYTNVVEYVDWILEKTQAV
UniProt P03951, 19-387 partner limits assumed: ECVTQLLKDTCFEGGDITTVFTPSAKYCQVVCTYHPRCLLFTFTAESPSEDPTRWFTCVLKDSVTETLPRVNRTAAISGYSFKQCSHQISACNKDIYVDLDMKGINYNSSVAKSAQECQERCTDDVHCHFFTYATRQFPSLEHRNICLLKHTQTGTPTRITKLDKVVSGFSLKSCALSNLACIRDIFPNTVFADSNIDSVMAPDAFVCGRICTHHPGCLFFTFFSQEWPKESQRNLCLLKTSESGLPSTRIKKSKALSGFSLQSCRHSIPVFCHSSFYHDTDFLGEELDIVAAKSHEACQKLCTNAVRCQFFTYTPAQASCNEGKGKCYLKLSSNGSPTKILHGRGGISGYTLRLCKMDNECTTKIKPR

The target of one assay is Human plasma kallikrein (Homo sapiens (Human), UniProt P03952). Nature of the assay: Kallikrein Assay (fluorogenic substrate Acetyl-K-P-R-AFC). It is filed as biochemical. The settings on record: read-out: PKal IC50.
A further assay has as its target human Factor XIa (Homo sapiens (Human), UniProt P03951). Kind of assay: Factor XIa Assay (fluorogenic substrate GPR-AFC). It is filed as biochemical. The conditions noted are these: read-out: FXIa IC50.

Consider `COCc1ncc(-c2c(C(F)F)ccc(Cl)c2F)nc1C(=O)Nc1cnn(C(C)c2cnc(N3C[C@H]4C[C@H]4C3=O)c(C)n2)c1` (single isomer, unassigned) [Example 125, 6-(3-Chloro-6-(difluoromethyl)-2-fluorophenyl)-3-(methoxymethyl)-N-(1-((S or R)-1-(6-methyl-5-((1R,5S)-2-oxo-3-azabicyclo[3.1.0]hexan-3-yl)pyrazin-2-yl)ethyl)-1H-pyrazol-4-yl)pyrazine-2-carboxamide], for which the results for the IC50 at Human plasma kallikrein and at human Factor XIa were 0.5 nM and 1030 nM, respectively.

Turning to `C[C@@H](c1cnc(N2C[C@H]3C[C@H]3C2=O)nc1)n1cc(NC(=O)c2cc(-c3c(C(F)F)ccc(Cl)c3F)c[n+]([O-])c2)cn1`, the IC50 on Human plasma kallikrein was 3.6 nM; on human Factor XIa it was 1840 nM.

For the origin of these results see US20230286958A1, “PLASMA KALLIKREIN INHIBITORS” (Merck Sharp & Dohme LLC, priority 2020, published 2023).
